# Yeast mating assay 1: variants of the scFv Ab-14

The target is the same throughout: PDVDLGDISGINAS, from the HR2 region of SARS-CoV-2 spike.

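The starting antibody came from a phage panning campaign against this peptide. In library AAYL49, one, two or three CDR residues were substituted; doubles and triples were drawn at random. The assay is AlphaSeq: two haploid yeast populations carry antibody and antigen on their surface. Binding brings cells together so that they mate, and sequencing counts the barcode pairs among the diploids. Each replicate has its own calibration line, from reference interactions of the BCL2 family. The assay was run in three technical replicates.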

Ab-14 is the parent antibody, in scFv form: VH, then the linker GGGGSGGGGSGGGGS, then VL. The light chain is unchanged in all variants.
VH: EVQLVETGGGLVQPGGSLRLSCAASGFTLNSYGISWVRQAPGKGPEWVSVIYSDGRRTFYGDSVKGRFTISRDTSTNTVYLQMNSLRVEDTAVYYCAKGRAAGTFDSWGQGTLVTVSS
VL: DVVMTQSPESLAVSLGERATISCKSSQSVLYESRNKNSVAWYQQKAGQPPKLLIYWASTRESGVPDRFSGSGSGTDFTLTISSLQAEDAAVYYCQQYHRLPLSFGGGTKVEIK

Positions count from residue 1 of the parent VH; A101W puts W in place of A. Numbers give log10(Kd / nM), so 0 is 1 nM and 3 is 1 µM. Smaller is tighter. Replicates are averaged; those with no signal do not enter the mean. An entry "n.d." has no value in the source: the pair was not observed among the diploids in that replicate. This suggests poor binding but is not conclusive. Nonspecific signal, from three strains lacking the peptide, appeared in 15% of pairings of library AAYL49, centred on 4.06 (5% of these signals below 2.83); values are not corrected for it. The control count says in how many pairings with the empty strains this scFv gave a signal, with their mean in brackets. Parent in this assay: reference entry 0.65, copy in this library 4.11 (one replicate of three).

| changes | replicates, log10 nM | log10 Kd (nM), mean | signal with controls |
|---|---|---|---|
| A101W/A102R | n.d. / n.d. / n.d. | n.d. | 1 of 9 (3.02) |
| F27P/G61T/G99D | 1.13 / 1.45 / 1.10 | 1.23 | 0 of 9 |
| G33M/F59E/D106R | n.d. / n.d. / n.d. | n.d. | 0 of 9 |
| S35K/S53T/A102D | n.d. / n.d. / n.d. | n.d. | 1 of 9 (4.12) |
| I51H/K65I/T104P | n.d. / n.d. / n.d. | n.d. | 2 of 9 (4.44) |
| D54W/R57V/F59M | n.d. / 4.68 / 5.38 | 5.03 | 9 of 9 (4.40) |
| Y32D/G55F/S107F | n.d. / n.d. / n.d. | n.d. | 1 of 9 (4.60) |
| F59Q/R100V/G103M | n.d. / n.d. / n.d. | n.d. | 1 of 9 (5.24) |
| R100T/G103C | 5.57 / 5.76 / 4.72 | 5.35 | 5 of 9 (4.88) |
| I51E/A102F/S107M | n.d. / n.d. / n.d. | n.d. | 0 of 9 |
| Y52W/D54V/T104P | n.d. / n.d. / n.d. | n.d. | 0 of 9 |
| D54P/A101N/G103T | n.d. / 3.06 / n.d. | 3.06 | 0 of 9 |
| F27V/I34W/S107Q | 2.64 / 4.39 / 3.15 | 3.39 | 0 of 9 |
| Y32D/G33T | 4.66 / 4.04 / n.d. | 4.35 | 2 of 9 (4.22) |
| G26F/S31Y/G33R | n.d. / n.d. / n.d. | n.d. | 1 of 9 (4.06) |
| L29R/F105Y | n.d. / 3.13 / 4.76 | 3.94 | 1 of 9 (3.57) |
| G26R/F59P | n.d. / 3.34 / n.d. | 3.34 | 0 of 9 |
| T28L/G55E/T104L | n.d. / n.d. / n.d. | n.d. | 0 of 9 |
| N30F/G33D/R57N | n.d. / 3.34 / n.d. | 3.34 | 2 of 9 (3.75) |
| G26K/G33Q/F59C | n.d. / 3.18 / n.d. | 3.18 | 1 of 9 (3.73) |
| T28G/F59C/G103K | 3.74 / 3.02 / n.d. | 3.38 | 2 of 9 (3.67) |
| G26H/S35E/K65C | n.d. / n.d. / 4.45 | 4.45 | 2 of 9 (3.93) |
| Y32E/V50K/D54R | n.d. / n.d. / n.d. | n.d. | 0 of 9 |
| G26T/T28Y | 3.70 / 3.01 / n.d. | 3.35 | 0 of 9 |
| G26Q/Y52T | 2.10 / 1.94 / 2.32 | 2.12 | 2 of 9 (3.22) |
| G26C/I51G/R56W | n.d. / n.d. / n.d. | n.d. | 0 of 9 |
| G26Y/L29M/G33L | n.d. / 3.96 / n.d. | 3.96 | 3 of 9 (4.32) |
| S63I/G99A/R100Q | n.d. / n.d. / n.d. | n.d. | 0 of 9 |
| F27L/N30Y/I34V | n.d. / n.d. / n.d. | n.d. | 0 of 9 |
| S31A/I51W | n.d. / n.d. / n.d. | n.d. | 1 of 9 (3.14) |
| S53F/G55I/K65L | n.d. / n.d. / n.d. | n.d. | 0 of 9 |
| G33S/R56G | n.d. / n.d. / n.d. | n.d. | 0 of 9 |
| G33W/S35E/S53T | n.d. / 5.20 / n.d. | 5.20 | 2 of 9 (3.12) |
| S63M/K65D/D106K | 4.15 / 2.79 / 2.95 | 3.29 | 3 of 9 (4.08) |
| L29I/S35H/G55K | n.d. / 4.60 / n.d. | 4.60 | 4 of 9 (4.63) |
| T28I/G33S/R100F | n.d. / n.d. / n.d. | n.d. | 1 of 9 (3.71) |
| L29A/K65A/F105G | n.d. / n.d. / n.d. | n.d. | 2 of 9 (3.51) |
| F27S/Y52E/G99Y | n.d. / 3.93 / n.d. | 3.93 | 5 of 9 (3.94) |
| G26Y/G103Q/D106I | n.d. / n.d. / n.d. | n.d. | 3 of 9 (4.60) |
| S35G/R57T/S107F | n.d. / n.d. / n.d. | n.d. | 1 of 9 (4.68) |
| S31K/G33Q/G103M | n.d. / n.d. / n.d. | n.d. | 2 of 9 (3.39) |
| N30V/Y32E/V64W | n.d. / n.d. / n.d. | n.d. | 0 of 9 |
| R56N/F59R | 4.42 / 2.34 / 3.48 | 3.41 | 1 of 9 (4.89) |
| F27A/G99K/F105L | n.d. / n.d. / n.d. | n.d. | 2 of 9 (3.06) |
| N30P/V64T | 4.98 / n.d. / n.d. | 4.98 | 1 of 9 (4.87) |
| Y32N/D62F/R100P | n.d. / n.d. / n.d. | n.d. | 0 of 9 |
| V50F/S53M/S107D | 3.89 / n.d. / n.d. | 3.89 | 1 of 9 (3.81) |
| S35T/F59S | n.d. / n.d. / n.d. | n.d. | 1 of 9 (3.70) |
| I34G/R56Q | 2.77 / n.d. / n.d. | 2.77 | 0 of 9 |
| T28A/R56H/V64Y | 1.62 / 1.51 / 2.70 | 1.94 | 1 of 9 (3.53) |

Data: MIT Lincoln Laboratory AlphaSeq set, Engelhart et al. 2022, doi:10.1038/s41597-022-01779-4, as distributed in FLAb.